Assay results from patent US20200270125A1.

Biological target: recombinant human MASP-2 (CCP1-CCP2-SP fragment) (human) (UniProt O00187)
Test: ELISA: recombinant MASP-2 (CCP1-CCP2-SP) coated directly on the plate, A450

## OMS721 (antibody)
  EC50 (read off the curve): 60 pM
